{"source": "patent US8815249B2", "about": "(priority 1999, dated 2014)", "origin": "cited, not measured here", "conditions": "mouse, in vivo; cited from earlier work", "data": [{"sequence": "HCLGKWLGHPDKFVGI [PL139-154]", "values": [{"measurement": "mice with severe clinical and histological EAE", "value": "3 of 20"}]}]}
